Laboratory results from patent publication US20240350588A1 (SUNSHINE LAKE PHARMA, published 2024).

T1: human GFRAL (UniProtKB-Q6UXVO) (human, UniProt Q6UXV0 19-394)
T1 sequence (looked up): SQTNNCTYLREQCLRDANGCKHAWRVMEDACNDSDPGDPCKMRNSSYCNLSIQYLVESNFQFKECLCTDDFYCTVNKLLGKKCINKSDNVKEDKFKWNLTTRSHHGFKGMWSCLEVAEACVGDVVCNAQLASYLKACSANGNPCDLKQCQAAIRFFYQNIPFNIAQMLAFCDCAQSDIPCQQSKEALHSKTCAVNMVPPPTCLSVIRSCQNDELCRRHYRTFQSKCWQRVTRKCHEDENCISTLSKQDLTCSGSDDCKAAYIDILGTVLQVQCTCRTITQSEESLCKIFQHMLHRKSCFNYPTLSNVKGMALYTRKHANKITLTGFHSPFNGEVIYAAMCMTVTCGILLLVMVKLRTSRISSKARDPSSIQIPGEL


Target: T1, human GFRAL (UniProtKB-Q6UXVO)
Experiment: cell-based or functional assay

Row | Relative activity ratio (native GDF15 EC50: Fc-GDF15 construct EC50), ERK1/2 phosphorylation HTRF in HEK293T cells expressing human GFRAL and RET [ratio] | Binder
1 | 2.79 | Fc-GDF15 fusion protein M15 (Fc fusion) GGPSVFLFPPKPKDTLMISRTPEVTCVVVDVSQEDPEVQFNWYVDGVEVHNAKTKPREEQFNSTYRVVSVLTVLHQDWLNGKEYKCKVSNKGLPSSIEKTISKAKGQPREPQVYTLPPSQEEMTKNQVSLTCLVKGFYPSDIAVEWESNGQPENNYKTTPPVLDSDGSFFLYSRLTVDKSRWQEGNVFSCSVMHEALHNHYTQESLSLSLGGGGGSGGGGSAPAPAPAPAPAPAPAPAPAPGGGGSGGGGSDHCPLGPGRCCRLHTVRASLEDLGWADWVLSPREVQVTMCIGACPSQFRAANMHAQIKTSLHRLKPDTVPAPCCVPASYNPMVLIQKTDTGVSLQTYDDLLAKDCHCI
2 | 2.03 | Fc-GDF15 fusion protein M16 (Fc fusion) GPSVFLFPPKPKDTLMISRTPEVTCVVVDVSQEDPEVQFNWYVDGVEVHNAKTKPREEQFNSTYRVVSVLTVLHQDWLNGKEYKCKVSNKGLPSSIEKTISKAKGQPREPQVYTLPPSQEEMTKNQVSLTCLVKGFYPSDIAVEWESNGQPENNYKTTPPVLDSDGSFFLYSRLTVDKSRWQEGNVFSCSVMHEALHNHYTQESLSLSLGGGGGSGGGGSAPAPAPAPAPAPAPAPAPAPGGGGSGGGGSDHCPLGPGRCCRLHTVRASLEDLGWADWVLSPREVQVTMCIGACPSQFRAANMHAQIKTSLHRLKPDTVPAPCCVPASYNPMVLIQKTDTGVSLQTYDDLLAKDCHCI
